This is an account of results in US5521199A, “Piperidinyl compounds as neurokinin receptor antagonists” (Zeneca Limited, priority 1993, dated 1996).

Protein sequences, listed by entry. Tags and fused reporters are not part of them.
UniProt P21452, whole entry: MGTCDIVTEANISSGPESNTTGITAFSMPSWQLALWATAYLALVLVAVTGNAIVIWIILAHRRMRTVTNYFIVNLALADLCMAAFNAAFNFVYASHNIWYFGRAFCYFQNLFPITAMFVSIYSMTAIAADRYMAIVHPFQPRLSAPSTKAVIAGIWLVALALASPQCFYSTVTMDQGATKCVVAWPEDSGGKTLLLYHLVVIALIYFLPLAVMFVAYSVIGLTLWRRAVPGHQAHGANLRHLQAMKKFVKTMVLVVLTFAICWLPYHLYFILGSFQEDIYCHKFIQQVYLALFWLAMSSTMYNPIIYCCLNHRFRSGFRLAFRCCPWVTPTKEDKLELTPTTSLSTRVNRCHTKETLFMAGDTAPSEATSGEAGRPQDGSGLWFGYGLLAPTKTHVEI

The test concerns the target human NK2 receptor (Homo sapiens, UniProt P21452). Put plainly: Equilibrium-competition binding of 3H-NKA to MELM (membranes of MEL cells expressing human NK2 receptor).

Take [4,5-^3 H-Leu^9 ]-NKA [^3 H-NKA]: the “specific binding to MELM” value (3H-NKA 2.5 nM) amounted to 88±4%. Also, the Bmax (equilibrium-competition experiments, MELM) came out at 2229 fmol/mg protein.
